According to PubChem BioAssay AID1645848:
Converted amounts (≈) assume the structure as drawn.

Conditions: buffer; pH 7.4; 6.0 h; 150.0 µM

Compound | solubility kinetic [µg/mL]
Cc1cn(-c2cc(NC(=O)c3ccc(C)c(Nc4nccc(-c5cccnc5)n4)c3)cc(C(F)(F)F)c2)cn1 | < 1
Cc1cc(C)nc(NC(=S)N2CCN(Cc3ccc(C(F)(F)F)cc3)CC2)c1 | 10.4 (≈ 25.4 µM)
